This is an account of results in US9803245B2, “Signature for predicting clinical outcome in human HER2+ breast cancer” (University Health Network, priority 2012, dated 2017).

What all share (type): in vivo, human
The test system of experiment [1] is HER2+:ERα− BC patients. As to the kind of experiment: Pathological complete response (pCR) after neoadjuvant chemotherapy plus trastuzumab, by HTICS status. The conditions noted are these: GSE22358 plus MD Anderson dataset. Here is the method:
We next sought to determine their response to trastuzumab. Only one patient cohort (n=27) of neoadjuvant chemotherapy plus trastuzumab with microarray data and pathological complete response (pCR) is publicly available (GSE22358-(26)). We combined it with a new dataset with clinical data (pCR, MFS and OS) from 50 HER2^+ patients who were treated with neoadjuvant chemotherapy (fluorouracil/epirubicin or adriamycin/cyclophosphamide-taxol) plus trastuzumab at the MD Anderson Cancer Center and monitored in the past 7.5 years. This group of HER2^+ patients included 32 ERα^− and 18 ERα^+ tumors.
2 datasets with pathological complete response (pCR) information were analyzed: GSE22358 and the MD Anderson cohorts. For pCR analysis, only samples with complete responses (pCR) were considered to be success and all other responses (partial, minor, near-complete) were regarded as failure. SSM for HTICS was calculated for each sample and number of patients with success/failure in HTICS^−/HTICS^+ groups was assessed by chi-square test to determine significance. For post-surgery analysis, such as % metastasis and overall survival/MFS Kaplan-Meier curves, 2 samples (one HER2^+:ERα^+, one HER2^+:ERα^−) were removed from the MD Anderson cohort due to a different adjuvant chemotherapy regimens. […] Statistical significance was calculated by chi-square test.

Experiment [2] concerns HER2+:ERα− BC patients. Nature of the experiment: Retrospective analysis of metastasis post-surgery, trastuzumab-untreated versus chemo/trastuzumab-treated patients. The text has this: (§1) To begin to assess benefits from trastuzumab, we retrospectively determined the fraction of HER2^+:ERα^− patients that developed metastasis within 48 months post-surgery in the publicly available trastuzumab-untreated (n=33, FIG. 5C) versus neoadjuvant chemo/trastuzumab-treated patients (n=27, FIG. 6A). […] In contrast, for HTICS^+ patients, 12/18 (66%) relapsed in the chemo group compared to 5/18 (27%) in the chemo/trastuzumab group (FIG. 6B).
(§2) 2 datasets with pathological complete response (pCR) information were analyzed: GSE22358 and the MD Anderson cohorts. For pCR analysis, only samples with complete responses (pCR) were considered to be success and all other responses (partial, minor, near-complete) were regarded as failure. SSM for HTICS was calculated for each sample and number of patients with success/failure in HTICS^−/HTICS^+ groups was assessed by chi-square test to determine significance. For post-surgery analysis, such as % metastasis and overall survival/MFS Kaplan-Meier curves, 2 samples (one HER2^+:ERα^+, one HER2^+:ERα^−) were removed from the MD Anderson cohort due to a different adjuvant chemotherapy regimens. For % metastasis analysis, HER2^+:ERα^− samples from published cohorts were combined as Trastuzumab^− group and used to compare to the Trastuzumab-treated (Trastuzumab^+) patients from MD Anderson. Statistical significance was calculated by chi-square test.

For experiment [3], the system named is HER2+:ERα− BC patients. As to the kind of experiment: Retrospective analysis of death / overall survival post-surgery, trastuzumab-untreated versus chemo/trastuzumab-treated patients. The note with it: for deaths: MD Anderson, neoadjuvant chemotherapy plus trastuzumab, 7.5 years (90 months post-surgery).
Source text: as §1, §2

Values joined by “and” are separate entries in the source; they are usually repeats but may differ in a detail not shown here. Equal values may be shown once. “Also recorded” adds a separate entry of the source.

In the case of trastuzumab, the entries for the “pathological complete response (pCR)” value in the experiment on HER2+:ERα− BC patients [1] (HTICS+ HER2+:ERα− patients) and in the experiment with HER2+:ERα− BC patients [1] (HTICS− HER2+:ERα− patients) were 42% and 76%, respectively. Besides, the patients with metastases in the experiment on HER2+:ERα− BC patients [2] (HTICS+ HER2+:ERα− patients, MD Anderson, neoadjuvant chemotherapy plus trastuzumab, 90 months post-surgery) was 5. In addition, the “fraction of patients that developed metastasis (relapsed)” value with HER2+:ERα− BC patients [2] (HTICS+ HER2+:ERα− patients, chemo/trastuzumab group, within 48 months post-surgery) is 27%. In addition, in the experiment with HER2+:ERα− BC patients [2] (HTICS+ HER2+:ERα− patients, chemo/trastuzumab versus trastuzumab-untreated (66%/27%)), the “reduction of metastasis / improvement of MFS” value was 2.4 fold. Besides, in the experiment on HER2+:ERα− BC patients [2] (HTICS− HER2+:ERα− patients, MD Anderson, neoadjuvant chemotherapy plus trastuzumab, 90 months post-surgery), the patients with metastasis result is “one”. Further, the “fraction of patients that developed metastasis” value with HER2+:ERα− BC patients [2] (HTICS− HER2+:ERα− patients, chemo plus trastuzumab group, within 48 months post-surgery) is 11%. In addition, in the experiment on HER2+:ERα− BC patients [2] (HTICS− HER2+:ERα− patients, versus trastuzumab-negative group, 4-year period), the “effect of trastuzumab on metastasis (MFS)” value is listed as “did not have a significant effect; also recorded: insignificant”. Further, the deaths in the experiment with HER2+:ERα− BC patients [3] (HTICS+ HER2+:ERα− patients) was 5; with HER2+:ERα− BC patients [3] (HTICS− HER2+:ERα− patients), “none and no death occurred”. The “fraction of patients that died” value in the experiment with HER2+:ERα− BC patients [3] (HTICS+ HER2+:ERα− patients, chemo/trastuzumab treated cohort, 4-years post-surgery) is recorded as 22%. Besides, the “increase in OS” value with HER2+:ERα− BC patients [3] (HTICS+ HER2+:ERα− patients, chemo/trastuzumab versus trastuzumab-untreated) was 2.95 fold and 2.9 fold. In addition, in the experiment with HER2+:ERα− BC patients [3] (HTICS− HER2+:ERα− patients, 4-year period), the “difference in OS, trastuzumab-untreated versus chemo/trastuzumab-treated” value is reported as “no statistically significant difference; also recorded: insignificant”.
